The target of the test is recombinant calcineurin-A/B heterodimer (isoform not given) (human). The test can be described thus: laser fluorescence correlation spectroscopy (FCS); 10 nM Fluophos-RII-peptide in solution, calcineurin added.

The results in this text go back to patent US6875581 (GENOPIA BIOMEDICAL, dated 2005).

Usually Kd stands for the constant that tells how readily two partners part at equilibrium.

B1: RII-Fluophos (peptide)
peptide: DLDVPIPGRFDRRVSVAAE
modifications: Ser-15 coupled with fluorescein-phosphoamidit (phosphoester with fluorescein at Ser-15)
notes: Synthetic peptide; It was not converted by calcineurin; also called Fluophos-RII-peptide; fluorescent labeled RII-peptide
As for B1, the Kd came to 600 nM.
